According to ChEMBL document CHEMBL3758122, “Multitarget opioid ligands in pain relief: New players in an old game” (Eur J Med Chem, 2016):

Test system: Mus musculus
Test: Toxicity in sc dosed Kunming mouse assessed as sedation by rotarod test
Assay type: organism-based
Conditions: in vivo

Which ED50 does the source give for `CN(C(=O)Cc1ccc(Cl)c(Cl)c1)C1CCCCC1N1CCCC1.CS(=O)(=O)O` (stereo unspecified) here?
The ED50 was 3.32 mg/kg.
